System: MK
Conditions: live-cell microscopy, GFP-β1 tubulin

Substance: trastuzumab emtansine [T-DM1]
- MK differentiation: inhibits
- proPLT formation: disrupts
- tubulin organization: abnormal

From patent US11396016B2, “System and method for a biomimetic fluid processing” (The Brigham and Women's Hospital, Inc., priority 2013, dated 2022)
